Results published in patent US20160207928A1, “NOVEL COMPOUNDS FOR THE TREATMENT OF CANCER” (BAYER PHARMA AKTIENGESELLSCHAFT, priority 2013, published 2016).

Sequences of proteins named here, by UniProt entry; tags and fusion partners are left off.
UniProt P33981, whole entry: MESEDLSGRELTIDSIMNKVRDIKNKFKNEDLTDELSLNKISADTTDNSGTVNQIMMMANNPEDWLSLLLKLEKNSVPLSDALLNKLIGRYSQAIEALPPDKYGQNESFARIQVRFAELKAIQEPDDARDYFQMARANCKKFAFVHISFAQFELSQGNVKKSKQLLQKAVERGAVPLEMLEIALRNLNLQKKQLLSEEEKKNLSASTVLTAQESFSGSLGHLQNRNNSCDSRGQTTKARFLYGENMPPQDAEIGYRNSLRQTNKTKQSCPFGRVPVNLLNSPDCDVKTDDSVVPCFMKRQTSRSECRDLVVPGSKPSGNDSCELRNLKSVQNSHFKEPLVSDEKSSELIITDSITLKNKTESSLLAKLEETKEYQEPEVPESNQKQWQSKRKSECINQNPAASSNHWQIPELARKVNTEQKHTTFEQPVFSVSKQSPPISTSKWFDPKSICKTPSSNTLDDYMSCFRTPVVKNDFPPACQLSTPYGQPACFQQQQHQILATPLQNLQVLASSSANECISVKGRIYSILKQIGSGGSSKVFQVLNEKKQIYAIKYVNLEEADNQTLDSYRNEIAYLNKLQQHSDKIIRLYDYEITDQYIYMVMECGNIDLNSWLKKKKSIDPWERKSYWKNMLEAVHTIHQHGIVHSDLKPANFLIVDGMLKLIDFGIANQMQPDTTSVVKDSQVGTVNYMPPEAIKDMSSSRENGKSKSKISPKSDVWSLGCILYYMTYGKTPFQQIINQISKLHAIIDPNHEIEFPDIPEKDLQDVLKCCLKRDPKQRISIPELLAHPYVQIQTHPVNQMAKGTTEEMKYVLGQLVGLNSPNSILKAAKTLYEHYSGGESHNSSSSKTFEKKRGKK

Target: human kinase Mps-1 (Homo sapiens, UniProt P33981)
Experiment: Mps-1 kinase assay (TR-FRET, 10 μM ATP)
Details: read-out: Mps-1 Inhibition, IC50 (Assay with 10 μM ATP), N-terminally GST-tagged human full length recombinant Mps-1
Description: The human kinase Mps-1 phosphorylates a biotinylated substrate peptide. Detection of the phosphorylated product is achieved by time-resolved fluorescence resonance energy transfer (TR-FRET) from Europium-labelled anti-phospho-Serine/Threonine antibody as donor to streptavidin Labelled with cross-linked allophycocyanin (SA-XLent) as acceptor. Compounds are tested for their inhibition of the kinase activity.
N-terminally GST-tagged human full length recombinant Mps-1 kinase (purchased from Invitrogen, Karslruhe, Germany, cat. no PV4071) was used. […]
The resulting mixture was incubated 1 h at 22° C. to allow the binding of the phosphorylated peptide to the anti-phospho(Ser/Thr)-Europium-antibody. Subsequently the amount of phosphorylated substrate was evaluated by measurement of the resonance energy transfer from the Europium-labelled anti-phospho(Ser/Thr) antibody to the Streptavidin-XLent. Therefore, the fluorescence emissions at 620 nm and 665 nm after excitation at 350 nm was measured in a Viewlux TR-FRET reader (PerkinElmer LAS, Rodgau-Jügesheim, Germany). The “blank-corrected normalized ratio” (a Viewlux specific readout, similar to the traditional ratio of the emissions at 665 nm and at 622 nm, in which blank and Eu-donor crosstalk are subtracted from the 665 nm signal before the ratio is calculated) was taken as the measure for the amount of phosphorylated substrate. […]

IC50: ≤ 1 nM
SMILES: COc1cc(S(C)(=O)=O)ccc1Nc1nc2ccc(-c3ccc(NC(=O)Cc4ccc(F)cc4)cc3)nn2n1
